“Also recorded” adds a separate entry of the source.

For series [1] the following is noted: rats; cited from earlier work.
For series [2], the system named is apoptosis of nerve cells induced by MK-801. The note with it: 7-day old white rats, MK-801 0.5 mg/kg intraperitoneally, alone. The text has this: All groups were intraperitoneally injected.
Experimental animals were sacrificed under anesthetization and their brains were excised. The excised brains were fixed with formalin and tissue sections were obtained.

Turning to MK-801, in series [1], the elimination half-life was 1.9 h. For the same substance, the “apoptosis of nerve cells in cerebral slices (TUNEL)” value in series [2] is “apoptosis of nerve cells in cerebral slices was identified; also recorded: cells having died by apoptosis”.

(Values after patent publication US20030224074A1, “Composition for the protection and regeneration of nerve cells containing the extract of Scutellaria Radix” (EUGENBIO INC., priority 2001, published 2003).)
